The chains behind the UniProt entries cited, without tags or fusion partners. Residues count along the entry.
UniProt P43354, 364-598: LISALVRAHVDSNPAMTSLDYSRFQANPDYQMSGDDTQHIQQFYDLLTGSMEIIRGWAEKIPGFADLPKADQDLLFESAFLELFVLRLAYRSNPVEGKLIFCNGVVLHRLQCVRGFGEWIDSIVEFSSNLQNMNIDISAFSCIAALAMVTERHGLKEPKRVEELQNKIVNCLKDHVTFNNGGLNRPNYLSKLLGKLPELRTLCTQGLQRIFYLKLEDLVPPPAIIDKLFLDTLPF
UniProt P43354, 360-595 limits assumed: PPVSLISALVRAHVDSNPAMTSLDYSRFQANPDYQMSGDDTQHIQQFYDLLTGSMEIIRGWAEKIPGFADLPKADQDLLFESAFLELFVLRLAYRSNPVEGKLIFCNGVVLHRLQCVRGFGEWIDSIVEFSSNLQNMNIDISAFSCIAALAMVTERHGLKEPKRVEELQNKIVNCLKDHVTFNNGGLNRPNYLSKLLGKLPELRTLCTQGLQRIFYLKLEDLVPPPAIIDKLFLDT
UniProt P43354, 360-595 L570F limits assumed: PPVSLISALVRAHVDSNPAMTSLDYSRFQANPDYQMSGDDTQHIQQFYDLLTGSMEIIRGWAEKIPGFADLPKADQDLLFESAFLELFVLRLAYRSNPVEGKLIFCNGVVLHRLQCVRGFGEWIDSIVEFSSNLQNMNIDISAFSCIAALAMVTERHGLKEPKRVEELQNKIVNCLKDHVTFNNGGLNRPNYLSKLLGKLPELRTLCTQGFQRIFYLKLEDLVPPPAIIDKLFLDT
UniProt P43354, 360-595 L559F limits assumed: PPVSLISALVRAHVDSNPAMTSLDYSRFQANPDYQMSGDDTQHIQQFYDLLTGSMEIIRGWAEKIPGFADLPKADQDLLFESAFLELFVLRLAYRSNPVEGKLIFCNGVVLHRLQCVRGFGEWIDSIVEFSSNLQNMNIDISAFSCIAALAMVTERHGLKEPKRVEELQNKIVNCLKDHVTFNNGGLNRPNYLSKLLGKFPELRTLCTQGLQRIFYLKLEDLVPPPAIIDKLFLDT
UniProt P43354, 360-595 I500F limits assumed: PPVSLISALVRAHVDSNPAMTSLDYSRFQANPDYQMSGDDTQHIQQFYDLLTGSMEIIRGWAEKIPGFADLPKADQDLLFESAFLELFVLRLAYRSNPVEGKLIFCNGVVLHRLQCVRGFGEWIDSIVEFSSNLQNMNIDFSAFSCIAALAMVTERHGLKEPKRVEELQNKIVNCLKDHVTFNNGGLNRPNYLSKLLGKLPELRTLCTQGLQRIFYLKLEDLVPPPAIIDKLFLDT
UniProt P43354, 360-595 Q571W limits assumed: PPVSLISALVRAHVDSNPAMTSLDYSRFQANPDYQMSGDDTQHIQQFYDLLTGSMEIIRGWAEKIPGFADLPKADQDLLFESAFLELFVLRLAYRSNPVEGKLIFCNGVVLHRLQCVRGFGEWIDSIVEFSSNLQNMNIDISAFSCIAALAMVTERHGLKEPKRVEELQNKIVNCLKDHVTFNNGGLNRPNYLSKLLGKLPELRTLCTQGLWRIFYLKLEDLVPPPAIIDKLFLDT
UniProt P43354, 360-595 V373W/I500W limits assumed: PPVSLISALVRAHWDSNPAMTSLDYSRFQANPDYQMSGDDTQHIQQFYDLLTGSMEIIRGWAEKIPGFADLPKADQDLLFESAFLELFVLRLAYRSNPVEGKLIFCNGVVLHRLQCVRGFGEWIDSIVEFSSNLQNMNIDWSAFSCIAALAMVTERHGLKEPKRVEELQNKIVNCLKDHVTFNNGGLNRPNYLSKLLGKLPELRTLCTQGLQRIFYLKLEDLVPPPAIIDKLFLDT
UniProt P43354, 360-595 I500W limits assumed: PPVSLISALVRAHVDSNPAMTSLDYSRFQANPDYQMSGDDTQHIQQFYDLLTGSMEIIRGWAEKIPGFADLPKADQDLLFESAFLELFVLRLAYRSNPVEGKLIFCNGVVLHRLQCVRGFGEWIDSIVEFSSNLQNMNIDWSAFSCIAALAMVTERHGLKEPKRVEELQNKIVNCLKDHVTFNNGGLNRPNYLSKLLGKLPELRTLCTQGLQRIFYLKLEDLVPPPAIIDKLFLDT
UniProt P43354, 360-595 H372F limits assumed: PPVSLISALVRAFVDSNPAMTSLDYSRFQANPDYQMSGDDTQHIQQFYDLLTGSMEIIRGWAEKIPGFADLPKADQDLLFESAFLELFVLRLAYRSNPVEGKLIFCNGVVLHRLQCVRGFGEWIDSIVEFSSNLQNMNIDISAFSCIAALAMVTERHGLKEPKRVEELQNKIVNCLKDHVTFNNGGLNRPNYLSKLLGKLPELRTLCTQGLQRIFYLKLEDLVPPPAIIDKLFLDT
UniProt P43354, 360-595 I506F limits assumed: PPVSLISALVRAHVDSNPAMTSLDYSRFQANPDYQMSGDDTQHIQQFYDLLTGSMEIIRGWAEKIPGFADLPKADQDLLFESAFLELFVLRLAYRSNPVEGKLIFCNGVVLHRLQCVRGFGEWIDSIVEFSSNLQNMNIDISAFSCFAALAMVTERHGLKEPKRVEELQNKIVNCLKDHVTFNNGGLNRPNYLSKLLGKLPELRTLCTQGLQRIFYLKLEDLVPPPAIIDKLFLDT
UniProt P43354, 360-595 L444F limits assumed: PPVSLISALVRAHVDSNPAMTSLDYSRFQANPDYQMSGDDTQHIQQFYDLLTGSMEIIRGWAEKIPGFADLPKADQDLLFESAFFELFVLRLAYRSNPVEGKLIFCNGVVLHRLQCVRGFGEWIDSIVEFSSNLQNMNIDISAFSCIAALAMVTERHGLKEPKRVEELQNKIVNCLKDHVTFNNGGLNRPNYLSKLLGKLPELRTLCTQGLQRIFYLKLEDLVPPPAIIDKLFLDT

According to PMC12095788, “Structural and mechanistic profiling of Nurr1 modulation by vidofludimus enables structure-guided ligand design” (Communications Chemistry, 2025):

Experiments:
Nurr1 LBD - PIASγ = molecular target: T1, Nurr1 LBD - PIASγ (Homo sapiens, UniProt P43354); assay: HTRF co-regulator recruitment assay, PIASγ; type: biochemical
T1 construct: a plasmid construct encoding Nurr1 (aa 364-598) in a pMal vector system; MBP (cleaved yes); made in house; host or cells: E. coli BL21-R3-pRARE2

Nurr1 LBD - NRIP = molecular target: T2, Nurr1 LBD - NRIP (Homo sapiens, UniProt P43354); assay: HTRF co-regulator recruitment assay, NRIP; type: biochemical
T2 construct: a plasmid construct encoding Nurr1 (aa 364-598) in a pMal vector system; MBP (cleaved yes); made in house; host or cells: E. coli BL21-R3-pRARE2

[1] = molecular target: T3, Nurr1 LBD - RXRα LBD heterodimer (Homo sapiens, UniProt P43354); assay: HTRF Nurr1-RXRα heterodimer formation assay; type: biochemical; design: a plasmid construct encoding Nurr1 (aa 364-598) in a pMal vector system; MBP (cleaved yes); made in house; host or cells: E.coli BL21-R3-pRARE2 (biotinylated Nurr1 LBD)
[2] = molecular target: Gal4-Nurr1 (wt human Nurr1 LBD) (Homo sapiens, UniProt P43354); details: maximum activation; cited from earlier work
Gal4-Nurr1 L570F = Gal4-Nurr1 L570F (Homo sapiens, UniProt P43354, L570F); assay: cell-based
Nurr1 LBD - SRC-1 = Nurr1 LBD - SRC-1 (Homo sapiens, UniProt P43354)
Gal4-Nurr1 L559F = Gal4-Nurr1 L559F (Homo sapiens, UniProt P43354, L559F); assay: cell-based
Gal4-Nurr1 I500F = molecular target: T4, Gal4-Nurr1 I500F (Homo sapiens, UniProt P43354, I500F); assay: Gal4-Nurr1 hybrid reporter gene assay, mutant I500F; type: cell-based
T4 construct: expressed in transfected cells; host or cells: HEK293T

Gal4-Nurr1 Q571W = Gal4-Nurr1 Q571W (Homo sapiens, UniProt P43354, Q571W); assay: cell-based
Nurr1 LBD - NCOR1 = molecular target: T5, Nurr1 LBD - NCOR1 (Homo sapiens, UniProt P43354); assay: HTRF co-regulator recruitment assay, NCOR1; type: biochemical; details: fluorescein labeled corepressor peptide, read-out: IC50 NCOR1 displacement from Nurr1 LBD
T5 construct: a plasmid construct encoding Nurr1 (aa 364-598) in a pMal vector system; MBP (cleaved yes); made in house; host or cells: E. coli BL21-R3-pRARE2

Nurr1 LBD - Lmx1b = molecular target: T6, Nurr1 LBD - Lmx1b (Homo sapiens, UniProt P43354); assay: HTRF co-regulator recruitment assay, Lmx1b; type: biochemical
T6 construct: sGFP-Nurr1[26]; LBD as FRET acceptor; made in house

Nurr1 LBD - NCoA6 = molecular target: T7, Nurr1 LBD - NCoA6 (Homo sapiens, UniProt P43354); assay: HTRF co-regulator recruitment assay, NCoA6; type: biochemical
T7 construct: a plasmid construct encoding Nurr1 (aa 364-598) in a pMal vector system; MBP (cleaved yes); made in house; host or cells: E. coli BL21-R3-pRARE2

Nurr1 LBD - CoREST = molecular target: T8, Nurr1 LBD - CoREST (Homo sapiens, UniProt P43354); assay: HTRF co-regulator recruitment assay, CoREST; type: biochemical
T8 construct: sGFP-Nurr1[26]; LBD as FRET acceptor; made in house

Nurr1 LBD (wt) = Nurr1 LBD (wt) (Homo sapiens, UniProt P43354); assay: Binding kinetics by biolayer interferometry (BLI); design: For generation of biotinylated Nurr1 a plasmid construct encoding Nurr1 (aa 364-598) in a pMal vector system; MBP (cleaved yes); made in house; host or cells: E.coli BL21-R3-pRARE2
Gal4-Nurr1 I500W/V373W = molecular target: T9, Gal4-Nurr1 I500W/V373W (Homo sapiens, UniProt P43354, I500W/V373W); assay: Gal4-Nurr1 hybrid reporter gene assay, double mutant I500W/V373W; type: cell-based; details: fold reporter activation vs. DMSO
T9 construct: expressed in transfected cells; host or cells: HEK293T

Gal4-Nurr1 I500W = Gal4-Nurr1 I500W (Homo sapiens, UniProt P43354, I500W); assay: cell-based
[3] = molecular target: T3, Nurr1 LBD - RXRα LBD heterodimer; assay: ITC Nurr1-RXR dimerization; details: ITC stoichiometry, ligand 200 µM
Gal4-Nurr1 H372F = molecular target: T10, Gal4-Nurr1 H372F (Homo sapiens, UniProt P43354, H372F); assay: Gal4-Nurr1 hybrid reporter gene assay, mutant H372F; type: cell-based
T10 construct: expressed in transfected cells; host or cells: HEK293T

Gal4-Nurr1 I506F = Gal4-Nurr1 I506F (Homo sapiens, UniProt P43354, I506F); assay: cell-based
Gal4-Nurr1 L444F = Gal4-Nurr1 L444F (Homo sapiens, UniProt P43354, L444F); assay: cell-based
Nurr1 LBD - SMRT = molecular target: T11, Nurr1 LBD - SMRT (Homo sapiens, UniProt P43354); assay: HTRF co-regulator recruitment assay, SMRT; type: biochemical
T11 construct: a plasmid construct encoding Nurr1 (aa 364-598) in a pMal vector system; MBP (cleaved yes); made in house; host or cells: E. coli BL21-R3-pRARE2

COc1cccc(-c2ccc(NC(=O)C3=C(C(=O)O)CCC3)c(F)c2)c1 [vidofludimus]
IC50 (Nurr1 LBD - PIASγ): 12 ± 2 µM
IC50 (Nurr1 LBD - NRIP): 14 ± 3 µM
effect on Nurr1-RXR heterodimerization [1]: destabilized
activation on Nurr1 (efficacy) [2]: 310%
EC50 (Gal4-Nurr1 L570F): 410 ± 80 nM
effect on SRC-1 binding to Nurr1 LBD (Nurr1 LBD - SRC-1): neither bound to ligand-free Nurr1 nor in presence of vidofludimus
EC50 (Gal4-Nurr1 L559F): 220 ± 30 nM
EC50 (Gal4-Nurr1 I500F): 140 ± 20 nM
EC50 (Gal4-Nurr1 Q571W): 120 ± 10 nM
IC50 (Nurr1 LBD - NCOR1): 10 ± 3 µM
effect on Lmx1b recruitment to Nurr1 LBD (Nurr1 LBD - Lmx1b): no effect; also recorded: no response
IC50 (Nurr1 LBD - NCoA6): 9 ± 2 µM
effect on CoREST recruitment to Nurr1 LBD (Nurr1 LBD - CoREST): slightly reduced and weak
dissociation rate koff (Nurr1 LBD (wt); BLI, Nurr1 LBD wt): 0.233 s⁻¹
koff (Nurr1 LBD (wt); read-out: dissociation rate koff, BLI, Nurr1 LBD wt): 0.223 s⁻¹
activation of Gal4-Nurr1 double mutant I500W/V373W (Gal4-Nurr1 I500W/V373W): complete loss of activation
activation of Gal4-Nurr1 double mutant I500W/V373W (Gal4-Nurr1 I500W/V373W; listed as Vidofludimus): failed to activate
EC50 (Gal4-Nurr1 I500W): 200 ± 20 nM
n Nurr1 LBD – RXR LBD [3]: 0.79±0.07
EC50 (Gal4-Nurr1 H372F): 130 ± 10 nM
EC50 (Gal4-Nurr1 I506F): 230 ± 50 nM
EC50 (Gal4-Nurr1 L444F): 220 ± 80 nM
IC50 (Nurr1 LBD - SMRT): 8 ± 1 µM

Entries after “also recorded” stand apart in the source; their conditions may differ.
